## Antibody variant affinities, Ab-14 light chain, assay B

Source: Li et al. 2023 (doi:10.1038/s41467-023-39022-2), MIT Lincoln Laboratory and A-Alpha Bio; data file from the FLAb repository.

Target: peptide PDVDLGDISGINAS, taken from heptad repeat 2 (HR2) of SARS-CoV-2 spike.

Ab-14 is the parent antibody, in scFv form: VH, then three GGGGS repeats, then VL. The heavy chain is unchanged in all variants.
VH: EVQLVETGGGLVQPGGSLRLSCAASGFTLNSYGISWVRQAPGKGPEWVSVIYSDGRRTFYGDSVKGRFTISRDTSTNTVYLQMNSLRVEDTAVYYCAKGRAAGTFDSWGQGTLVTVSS
VL: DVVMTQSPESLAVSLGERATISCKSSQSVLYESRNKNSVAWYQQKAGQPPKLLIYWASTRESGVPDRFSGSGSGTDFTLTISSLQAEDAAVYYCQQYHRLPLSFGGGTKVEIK

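The parent was found by panning a naive human phage display library on the peptide. This is the validation round: designs drawn from the data on random variants, tested in the same kind of assay. Several design methods are mixed in this list. AlphaSeq pools MATa yeast showing the antibodies with MATalpha yeast showing the peptide. Binding brings cells together so that they mate, and sequencing counts the barcode pairs among the diploids. Read counts were normalised to the haploid input and turned into Kd by a linear fit to BCL2-family pairs of known affinity, for each replicate. Mating was done six times.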

Substitutions are numbered in sequence along the VL above, starting at 1 (not Kabat).
This list holds designs with at most six substitutions.
Scale: log10 of Kd in nM, estimated from mating counts; low values are strong binders.
A mean of the replicates is given; it leaves out those without a signal.
"nd" marks a missing value. The strain was present, yet no cells mated with the target were sequenced in any replicate, which points to weak or no binding.

Variant S25L S26P V29K W56N T59Q showed -0.04 (6 of 6 replicates).
Variant S25V Y31P showed 0.85 (6 of 6 replicates).
Variant S26M Q27T V29M L30E W56E S62L showed 0.04 (6 of 6 replicates).
Variant S25L S26P W56H E61C showed 0.80 (6 of 6 replicates).
Variant S25L S26Q V29E N35M W56N E61M showed 0.70 (6 of 6 replicates).
Variant S25V S33G W56N showed -0.01 (12 of 12 replicates).
Variant S25D N35Q R99M showed nd (0 of 6 replicates).
Variant S26P N35D W56H S62D showed 0.02 (6 of 6 replicates).
Variant Y31R A57V showed nd (0 of 6 replicates).
Variant S25V V29H W56N T59Q showed -0.06 (6 of 6 replicates).
Variant S25V L30I showed 0.54 (6 of 6 replicates).
Variant E32D S33C E61D L100I showed 2.59 (4 of 6 replicates).
Variant S25L V29H N35M W56N E61L showed 0.34 (6 of 6 replicates).
Variant S25L V29M L30P W56N E61M showed -0.23 (6 of 6 replicates).
Variant Y31M K36V W56D showed 0.07 (6 of 6 replicates).
Variant S25F S26E V29Q W56N T59Q showed -0.18 (6 of 6 replicates).
Variant S25I W56N E61C showed 0.45 (6 of 6 replicates).
Variant S25V R34M W56E showed 0.54 (6 of 6 replicates).
Variant S25L W56Q Q96D showed -0.10 (6 of 6 replicates).
Variant S25L W56E T59Q E61C showed 0.00 (6 of 6 replicates).
Variant Q27W R34N W56G S62D showed 0.44 (6 of 6 replicates).
Variant S25W V29L L30C A57G showed 1.86 (5 of 6 replicates).
Variant S25E L30P Y31F S33W W56D showed 0.00 (6 of 6 replicates).
Variant K24C S62V showed nd (0 of 6 replicates).
Variant S26Y R34M K36S W56N showed 0.52 (6 of 6 replicates).
Variant L30A W56S S58K showed 1.83 (6 of 6 replicates).
Variant S25V V29M W56N S103M showed -0.23 (6 of 6 replicates).
Variant S25I Y31M R34L W56H E61C S62D showed 0.08 (6 of 6 replicates).
Variant S26K L102F showed 2.41 (3 of 6 replicates).
Variant S25L S26E W56N E61S showed -0.34 (6 of 6 replicates).
Variant S25L S26E V29I L30G W56N showed 0.86 (6 of 6 replicates).
Variant S25L V29E W56N T59K E61M showed 0.09 (6 of 6 replicates).
Variant S25F N35T W56N S62T S103W showed 0.32 (6 of 6 replicates).
Variant S25L Q27W Y31F W56D E61S showed -0.23 (6 of 6 replicates).
Variant S25L S26P V29T W56H T59Q showed -0.24 (6 of 6 replicates).
Variant S25V Y31G S33Q W56D showed 1.06 (6 of 6 replicates).
Variant S33V W56Y showed nd (0 of 6 replicates).
Variant Q27W R34N W56H S62D showed 0.47 (6 of 6 replicates).
Variant T59E R99Q showed 1.18 (5 of 6 replicates).
Variant S25L S26Q W56N E61C showed -0.03 (6 of 6 replicates).

From the list, the first 4 with no signal in any replicate:

{"changes": "S25D N35Q R99M", "log10 Kd (nM), mean": "nd", "detected": "0/6"}
{"changes": "Y31R A57V", "log10 Kd (nM), mean": "nd", "detected": "0/6"}
{"changes": "K24C S62V", "log10 Kd (nM), mean": "nd", "detected": "0/6"}
{"changes": "S33V W56Y", "log10 Kd (nM), mean": "nd", "detected": "0/6"}

As a blank, each scFv also met three strains without target: over all light chain designs, 4% of these pairings were detected, typically at 2.64 and seldom below 1.59.
Where one sequence has several entries in the source, the replicates are pooled.
The authors averaged sequences with at least three values out of six and counted those with two or fewer as poor binders.
A sequence measured in both rounds can read differently, since the two assays cover different ranges.